The species named for assay [1] is Rattus norvegicus. Description: Activation of Sprague-Dawley rat soluble guanylate cyclase after 10 mins in presence of cysteine relative to GTN.
For assay [2], the species on record is Rattus norvegicus. Description: Activation of Sprague-Dawley rat soluble guanylate cyclase after 10 mins in presence of cysteine.

Consider one compound from ChEMBL document CHEMBL3217567, “Differential activation of soluble guanylate cyclase by a series of aryl disulfanyl dinitrate esters” (Medchemcomm, 2014).

For the compound `O=[N+]([O-])OCC(CSSc1ccc([N+](=O)[O-])cc1)O[N+](=O)[O-]` (configuration not stated), the Emax in the assay listed under Rattus norvegicus [1] worked out at 116%. In the assay listed under Rattus norvegicus [2], the Activity result is “Dose-dependent effect”.
